Only a part is listed here, and it is no random draw. Potency and affinity values are given separately. Some tests of the compounds listed are not included; inactive here does not mean inactive elsewhere. Calls of active or inactive are those of the source.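 Rule for the calls: active = inhibition of at least 50% with at least 30 cells and total cytoplasm GFP at most 10,000,000; inconclusive = under 30 cells or total GFP of 10,000,000 plus; inactive = the rest.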

Protein sequences, listed by entry. Tags and fused reporters are not part of them.
UniProt Q9HC97, whole entry: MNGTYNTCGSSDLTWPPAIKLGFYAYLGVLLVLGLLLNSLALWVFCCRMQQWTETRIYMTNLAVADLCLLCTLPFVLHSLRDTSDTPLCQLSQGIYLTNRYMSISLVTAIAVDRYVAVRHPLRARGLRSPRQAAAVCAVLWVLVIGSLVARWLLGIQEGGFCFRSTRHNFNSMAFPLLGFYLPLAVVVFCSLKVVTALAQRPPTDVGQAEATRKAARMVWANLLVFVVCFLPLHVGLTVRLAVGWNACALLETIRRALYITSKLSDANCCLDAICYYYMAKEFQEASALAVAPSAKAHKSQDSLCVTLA

This assay concerns the target G-protein coupled receptor 35 (Homo sapiens) (UniProt Q9HC97). The assay is described as follows: inhibition of zaprinast-stimulated GPR35 beta-arrestin translocation – imaging, U2OS, beta-arrestin-GFP, zaprinast agonist, primary screen (AID 2058). The following applies: zaprinast antagonism, at 10 µM, stronger effect = higher value.
On to `Cc1ccccc1C(=O)NCC1(N2CCCCC2)CCCCC1`, for which the inhibition – broadly, the drop in the measured response relative to a control, in per cent – was inactive: 0.4%.

Turning to `CN(C)C1CCCC1OC(=O)C(O)(c1ccccc1)c1ccccc1` (centres undefined), the inhibition is inactive: -6.5%.

For the compound `CN(C)c1ccc(C(=O)NCC2(N(C)C)CCCCC2)cc1`, the inhibition is inactive: -1.8%.

On to `C=CCN1CCN(CCOC(=O)C(O)(c2ccccc2)c2ccccc2)CC1`, for which the inhibition is inactive: 4.9%.

Regarding `O=C(NCC1(N2CCCCC2)CCCCC1)c1cc(F)c(F)cc1Cl`, the inhibition was inactive: 11.9%.

Regarding `Cc1cc(C(=O)NCC2(N3CCCCC3)CCCCC2)ccc1[N+](=O)[O-]`, the inhibition is inactive: 3.6%.

In the case of `CCN1CCCC(OC(=O)C2(O)c3ccccc3C=Cc3ccccc32)C1` (centres undefined), the inhibition is inactive: 9.9%.

As to `O=C(NCC1(N2CCCCC2)CCCCC1)c1cccc(Br)c1`, the inhibition was inactive: -13.7%.

Take `COc1ccc(C(=O)NCC2(N(C)C)CCCCC2)cc1`: the inhibition was inactive: 16.1%.

For `O=C(NCC1(N2CCCCC2)CCCCC1)c1cc([N+](=O)[O-])ccc1Cl`, the inhibition was inactive: -5.9%.

For the compound `CN1[C@@H]2CC[C@H]1CC(OC(=O)C(O)(c1ccccc1)c1ccccc1)C2` (some centres undefined), the inhibition was inactive: -9.4%.

Regarding `CC(C)N1C(=O)CC2(CCN(CCOC(=O)C(O)(c3ccccc3)c3ccccc3)CC2)C1=O`, the inhibition is inactive: -5.4%.

As for `CCN(CC)CC(C)C(C)OC(=O)C(O)(c1ccccc1)c1ccccc1` (centres undefined), the inhibition is inactive: -8.7%.

With `COc1cc(SC)ccc1C(=O)NCC1(N(C)C)CCCCC1`, the inhibition was inactive: 3.1%.

With `Cc1ccc(C(=O)NCC2(N3CCCCC3)CCCCC2)cc1`, the inhibition is inactive: -4.7%.

For `O=C(OC1CN2CCC1CC2)C(CO)(c1ccccc1)c1ccccc1` (centres undefined), the inhibition was inactive: -11.3%.

Turning to `COc1ccc(Br)c(C(=O)NCC2(N3CCCCC3)CCCCC2)c1`, the inhibition was inactive: 1.8%.

Regarding `CN(C)c1cccc(C(=O)NCC2(N(C)C)CCCCC2)c1`, the inhibition is inactive: 3.6%.

`CC(C)Oc1ccc(C(=O)NCC2(N(C)C)CCCCC2)cc1`: the inhibition was inactive: -3.4%.

As for `CN(C)C1(CNC(=O)c2ccc(Br)cc2)CCCCC1`, the inhibition is inactive: 9.6%.

For `COc1cc(C(=O)NCC2(N(C)C)CCCCC2)c([N+](=O)[O-])cc1OC`, the inhibition is inactive: 2.1%.

`COc1cccc(C(=O)NCC2(N3CCCCC3)CCCCC2)c1`: the inhibition is inactive: -4.6%.

With `COc1ccc(Cl)cc1C(=O)NCC1(N(C)C)CCCCC1`, the inhibition is inactive: 16.3%.

Regarding `O=C(NCC1(N2CCCCC2)CCCCC1)c1cccc(Cl)c1`, the inhibition was inactive: -20.5%.

The record behind these values is PubChem BioAssay AID2058 (Sanford-Burnham Center for Chemical Genomics, 2009).
